Source: patent publication US9296748B2, “Pyridinones” (Boehringer Ingelheim International GmbH, priority 2013, dated 2016)

Target: BRD4-BD1 (Homo sapiens (Human), UniProt O60885)
Assay: BRD4-H4 Tetraacetylated Peptide Inhibition AlphaScreen
Assay type: binding
Conditions: read-out: BRD4-BD1 IC50; GST-BRD4-BD1 (aa 44-168), biotinylated Acetyl-Histone H4 peptide
Experimental: Compounds are diluted in serial dilution 1:5 in assay buffer from 10 mM stock in DMSO (100 μM start concentration) in white OptiPlate-384 (PerkinElmer). […] Subsequently, 6 μl of premixed AlphaLISA Glutathione Acceptor Beads and AlphaScreen Streptavidin Donor Beads from PerkinElmer (in assay buffer at a concentration of 10 μg/ml each) are added and the samples are incubated for 30 min at RT in the dark (shaking 300 rpm). Afterwards, the signal is measured in a PerkinElmer Envision HTS Multilabel Reader using the AlphaScreen protocol from PerkinElmer. […] Negative control values are entered as low basis value when using the software GraphPad Prism for calculations. Furthermore, a positive control (probe molecule JQ1+ with protein/peptide mix) is pipetted. Determination of IC50 values are carried out using GraphPad Prism 3.03 software (or updates thereof).

Cc1cc(-c2nc3ccc(OC4CCOC4)nc3n2C(C)c2ccccn2)cn(C)c1=O (stereo not shown)
IC50: 200 nM
